Measurements published in PMC2918227 (Bioorganic & medicinal chemistry, 2010).

The chains behind the UniProt entries cited, without tags or fusion partners.
UniProt P28223, whole entry: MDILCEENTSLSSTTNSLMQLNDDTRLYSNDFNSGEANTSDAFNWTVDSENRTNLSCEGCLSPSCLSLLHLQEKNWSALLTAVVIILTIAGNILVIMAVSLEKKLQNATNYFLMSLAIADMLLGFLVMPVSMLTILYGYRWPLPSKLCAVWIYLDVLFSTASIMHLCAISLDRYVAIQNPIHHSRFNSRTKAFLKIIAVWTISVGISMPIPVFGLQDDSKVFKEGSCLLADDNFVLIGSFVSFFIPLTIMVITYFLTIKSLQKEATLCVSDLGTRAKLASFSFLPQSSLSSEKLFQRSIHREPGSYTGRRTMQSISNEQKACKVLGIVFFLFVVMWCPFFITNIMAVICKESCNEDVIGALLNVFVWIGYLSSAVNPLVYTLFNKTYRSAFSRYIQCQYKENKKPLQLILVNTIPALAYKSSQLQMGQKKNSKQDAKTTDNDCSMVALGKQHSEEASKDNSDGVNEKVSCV

target: human 5-HT2A receptor (Homo sapiens, UniProt P28223); experiment: 5HT2A Ke determination in FLIPR assay; type: cell-based

Structure (SMILES)	Kb
COc1cc2c(c(-c3ccc4c(c3)OCO4)c1OC)CN(C)CC2 [Compound 6a, 8-(benzo[d][1,3]dioxol-5-yl)-6,7-dimethoxy-2-methyl-1,2,3,4-tetrahydroisoquinoline]	> 10 µM
COc1cc2c(c(-c3ccc4c(c3)OCO4)c1OC)C(C)N(C)CC2 (stereo not shown) [Compound 6b, 8-(benzo[d][1,3]dioxol-5-yl)-6,7-dimethoxy-1,2-dimethyl-1,2,3,4-tetrahydroisoquinoline]	> 10 µM
COc1cc2c3c(c1OC)-c1cc4c(cc1CC3NCC2)OCO4 (stereo not shown) [Compound 8a, 1,2-dimethoxy-5,6,6a,7-tetrahydro-4H-benzo[de][1,3]benzodioxolo[5,6-g]quinoline]	> 10 µM
CCN1CCc2cc(OC)c(OC)c3c2C1Cc1cc2c(cc1-3)OCO2 (stereo not shown) [Compound 8b, 1,2-dimethoxy-6-ethyl-5,6,6a,7-tetrahydro-4H-benzo[de][1,3]benzodioxolo[5,6-g]quinoline]	> 10 µM
